Measurements taken from PubChem BioAssay AID652197 (Broad Institute, 2013).
The list shows a part of the results, in another mix than the full data. Some salts or complexes appear as unconnected parts, following the source record. Activity calls are given as the source filed them.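 Rule for the calls: active = mean replicate inhibition of at least 30%, or all replicates individually reaching that 30% level; inactive = mean below 30% and not every replicate reaching it.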

Amino acid sequences for entries named in this document (tags omitted).
UniProt Q9NZ08, whole entry: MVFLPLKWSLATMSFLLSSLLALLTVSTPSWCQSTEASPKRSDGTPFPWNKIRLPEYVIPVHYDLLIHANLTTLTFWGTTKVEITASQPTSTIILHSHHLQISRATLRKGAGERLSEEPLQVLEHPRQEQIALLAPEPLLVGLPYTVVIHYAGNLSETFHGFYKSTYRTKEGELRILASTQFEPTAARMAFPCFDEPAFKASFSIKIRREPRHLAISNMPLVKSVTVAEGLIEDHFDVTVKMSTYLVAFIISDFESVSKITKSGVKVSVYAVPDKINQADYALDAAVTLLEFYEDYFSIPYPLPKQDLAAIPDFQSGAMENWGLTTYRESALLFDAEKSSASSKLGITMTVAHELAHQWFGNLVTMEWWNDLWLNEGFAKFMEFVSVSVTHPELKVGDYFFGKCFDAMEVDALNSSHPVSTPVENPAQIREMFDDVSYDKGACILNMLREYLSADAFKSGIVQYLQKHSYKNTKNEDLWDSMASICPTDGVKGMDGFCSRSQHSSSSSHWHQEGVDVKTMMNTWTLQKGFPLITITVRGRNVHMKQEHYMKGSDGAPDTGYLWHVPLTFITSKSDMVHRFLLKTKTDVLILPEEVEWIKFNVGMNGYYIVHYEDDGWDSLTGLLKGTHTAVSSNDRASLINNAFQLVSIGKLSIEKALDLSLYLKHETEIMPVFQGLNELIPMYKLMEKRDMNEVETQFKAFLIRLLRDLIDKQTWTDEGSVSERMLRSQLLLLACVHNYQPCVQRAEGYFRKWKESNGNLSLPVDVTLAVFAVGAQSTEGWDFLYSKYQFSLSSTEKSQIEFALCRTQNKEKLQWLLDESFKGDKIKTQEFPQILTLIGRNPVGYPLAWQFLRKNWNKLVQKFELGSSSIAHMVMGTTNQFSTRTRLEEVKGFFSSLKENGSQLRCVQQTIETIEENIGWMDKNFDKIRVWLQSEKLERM

molecular target: Endoplasmic reticulum aminopeptidase 1 (Homo sapiens) (UniProt Q9NZ08); experiment: inhibition of ERAP1 peptide trimming enzyme – biochemical, single point, plate reader, primary screen (AID 652197); settings: recombinant ERAP1, Leu-AMC fluorescence, 60 min; at 10.7 µM; hits give high values;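 note: 0% = neutral control wells and 100% = L-leucinethiol positive control wells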

Row | Structure (SMILES) | inhibition
1 | O=[N+]([O-])c1cc([N+](=O)[O-])c(C(F)(F)F)c([N+](=O)[O-])c1O | inactive: 3.75%
2 | CP(=O)(Nc1ccc(SC(F)(F)F)cc1)Oc1ccc(F)cc1 (stereo not given) | inactive: 16.5%
3 | CCOP(=O)(CC)OCC | inactive: 3.53%
4 | O=[N+]([O-])c1ccc(OP2(=O)COCCO2)cc1 (stereo not given) | inactive: 2.43%
5 | Cc1cc(-c2cccc3ccccc23)c(C)cn1.O=[N+]([O-])c1cc([N+](=O)[O-])c(O)c([N+](=O)[O-])c1 | inactive: 0.709%
6 | O=[N+]([O-])c1cc([N+](=O)[O-])c(NCC2CCS(=O)(=O)C2)c([N+](=O)[O-])c1 (stereo not given) | inactive: 6.43%
7 | Cc1c(C(c2ccc3c(c2)OCO3)c2c(C)n(C)n(-c3ccccc3)c2=O)c(=O)n(-c2ccccc2)n1C.O=[N+]([O-])c1cc([N+](=O)[O-])c(O)c([N+](=O)[O-])c1 | inactive: 8.76%
8 | COc1ccc(NP(C)(=O)Oc2ccccc2OC)cc1 (stereo not given) | inactive: 4.5%
9 | Cc1c([N+](=O)[O-])cc([N+](=O)[O-])c(Br)c1[N+](=O)[O-] | inactive: 6.1%
10 | O=[N+]([O-])c1cc([N+](=O)[O-])c(OC2CCCCC2O)c([N+](=O)[O-])c1 (stereo not given) | inactive: 1.28%
11 | CCN(CC)CCCNc1ccccc1[N+](=O)[O-].O=[N+]([O-])c1cc([N+](=O)[O-])c(O)c([N+](=O)[O-])c1 | inactive: 7.52%
12 | COc1ccc(OP(C)(=O)Nc2ccc(SC(F)(F)F)cc2)cc1 (stereo not given) | inactive: 0.603%
13 | O=C(OC1CN2CCC1CC2)c1ccc([N+](=O)[O-])cc1 (stereo not given) | inactive: 3.31%
14 | O=C(OCCN1CCN(CCOCc2ccccc2)CC1)C(O)(c1ccccc1)c1ccccc1 | inactive: 1.53%
15 | COc1ccc2c(c1O)-c1c(O)c(OC)cc3c1[C@H](C2)[N+](C)(C)CC3.O=[N+]([O-])c1cc([N+](=O)[O-])c([O-])c([N+](=O)[O-])c1[O-] | inactive: 2.11%
16 | O=[N+]([O-])c1cc([N+](=O)[O-])c(Nc2ccc(Cl)cc2)c([N+](=O)[O-])c1 | inactive: 2.49%
17 | CP(=O)(Nc1ccccc1F)Oc1ccccc1 (stereo not given) | inactive: -0.665%
18 | CC(C)c1ccc(OP(C)(=O)Nc2ccc(SC(F)(F)F)cc2)cc1 (stereo not given) | inactive: 5.69%
19 | O=[N+]([O-])c1cc([N+](=O)[O-])c(Nc2ccccn2)c([N+](=O)[O-])c1 | inactive: 1.65%
20 | CP(=O)(OCCOc1ccccc1)OCCOc1ccccc1 | inactive: -5.3%

Row | Structure (SMILES) | inhibition
21 | CP(=O)(Nc1ccc(Cl)cc1Cl)Oc1ccccc1 (stereo not given) | inactive: 0.477%
22 | CCCCCCCCCCCCCCCC1C[N+](C)(C)CCOP(C)(=O)O1 (stereo not given) | active: 69%
23 | Cc1cc(C)cc(OP(C)(=O)Nc2cccc(C(F)(F)F)c2)c1 (stereo not given) | inactive: -2.44%
24 | O=C1C(O)=C([N+](=O)[O-])C(=O)C(O)=C1[N+](=O)[O-] | inactive: -3.64%
25 | Nc1ccc2c(ccc3cccnc32)n1.O=[N+]([O-])c1cc([N+](=O)[O-])c(O)c([N+](=O)[O-])c1 | inactive: 2.01%
26 | CCOC(=O)c1ccc(NP(C)(=O)Oc2ccc(Cl)cc2)cc1 (stereo not given) | inactive: -0.391%
27 | COc1ccccc1OP(C)(=O)Nc1ccccc1Br (stereo not given) | inactive: -3.21%
28 | CN(C)C(=O)c1c([N+](=O)[O-])cc([N+](=O)[O-])cc1[N+](=O)[O-] | inactive: -0.087%
29 | O=C(OCCCN1CCCC1)C(O)(c1ccccc1)C1CCCCC1 (stereo not given) | inactive: 4.39%
30 | CCc1ccc(OP(C)(=O)Nc2cccnc2)cc1 (stereo not given) | inactive: -4.77%
31 | CCOC(=O)c1ccc(NP(C)(=O)Oc2ccc(OC)cc2)cc1 (stereo not given) | inactive: 2.21%
32 | O=[N+]([O-])c1cc([N+](=O)[O-])c(O)c([N+](=O)[O-])c1.c1ccc(Oc2ccncc2)cc1 | inactive: 5.51%
33 | CP(=O)(Nc1ccccn1)Oc1ccc(Cl)cc1 (stereo not given) | inactive: 0.105%
34 | CP(=O)(Oc1ccccc1)OC(c1ccccc1)C(F)(F)F (stereo not given) | inactive: 6.88%
35 | CP(=O)(Nc1ccc(SC(F)(F)F)cc1)Oc1ccc(Cl)cc1 (stereo not given) | inactive: -0.09%
36 | CCc1ccc(OP(C)(=O)N2CCN(c3ccc([N+](=O)[O-])cc3)CC2)cc1 (stereo not given) | inactive: 2.8%
37 | CP(=O)(NC(=O)Nc1ccccc1)Oc1ccccc1 (stereo not given) | inactive: -2.29%
38 | CP(=O)(Nc1ccccc1Br)Oc1ccccc1 (stereo not given) | inactive: 1.97%
39 | COc1ccccc1OP(C)(=O)Nc1ccccc1 (stereo not given) | inactive: 0.094%
40 | Cc1cc(C)cc(OP(C)(N)=O)c1 (stereo not given) | inactive: 0.097%

Row | Structure (SMILES) | inhibition
41 | COc1ccccc1OP(C)(=O)Nc1cc(Cl)ccc1C (stereo not given) | inactive: -0.023%
42 | O=[N+]([O-])c1cc([N+](=O)[O-])c(Nc2cccnc2)c([N+](=O)[O-])c1 | inactive: 1.27%
43 | O=[N+]([O-])c1ccc2c(c1)C=Nc1ccccc1O2 | inactive: 0.298%
44 | Cc1cccc(C)c1OP(C)(N)=O (stereo not given) | inactive: -1.12%
45 | CC(C)(C)c1ccc(OP(C)(=O)Nc2ccc(SC(F)(F)F)cc2)cc1 (stereo not given) | inactive: -0.759%
46 | COc1ccccc1-c1ccccn1.O=[N+]([O-])c1cc([N+](=O)[O-])c(O)c([N+](=O)[O-])c1 | inactive: 11.5%
47 | CP(=O)(Nc1cccc(Br)c1)Oc1ccccc1 (stereo not given) | inactive: -3.15%
48 | Cc1cc(C)cc(OP(C)(=O)Nc2ccccn2)c1 (stereo not given) | inactive: -0.669%
49 | COc1ccccc1OP(C)(=O)Nc1cccc(Br)c1 (stereo not given) | inactive: -4.47%
50 | CCOC(=O)c1ccc(NP(C)(=O)Oc2cc(C)cc(C)c2)cc1 (stereo not given) | inactive: -0.056%
51 | Cc1cc(C)cc(OP(C)(=O)Nc2ccc(C)cc2C)c1 (stereo not given) | inactive: 0.199%
52 | O=C(O)c1cccc(Nc2c([N+](=O)[O-])cc([N+](=O)[O-])cc2[N+](=O)[O-])c1 | inactive: 2.65%
53 | CN1CCCCC1COC(=O)C1(O)c2ccccc2CCc2ccccc21 (stereo not given) | inactive: 0.355%
54 | COc1ccc(-c2ccccn2)cc1.O=[N+]([O-])c1cc([N+](=O)[O-])c(O)c([N+](=O)[O-])c1 | inactive: 5.88%
55 | CCCOc1ccc(NP(C)(=O)Oc2ccc(Cl)cc2)cc1 (stereo not given) | inactive: 2.14%
56 | CCOC(=O)C(CC)C1=NC(C)(C)Cc2ccccc21.O=[N+]([O-])c1cc([N+](=O)[O-])c(O)c([N+](=O)[O-])c1 (stereo not given) | inactive: 7.65%
57 | O=[N+]([O-])c1cc([N+](=O)[O-])c(Nc2nnnn2CCO)c([N+](=O)[O-])c1 | inactive: 5.86%
58 | O=[N+]([O-])c1cc([N+](=O)[O-])c(-c2cnn(-c3ccccc3)c2)c([N+](=O)[O-])c1 | inactive: -0.144%
59 | O=[N+]([O-])c1cc([N+](=O)[O-])c(-n2nnc3ccccc32)c([N+](=O)[O-])c1 | inactive: 2.67%
60 | CN(Cc1cccnc1)C(=O)COc1ccc(Cl)c(Cl)c1.O=[N+]([O-])c1cc([N+](=O)[O-])c(O)c([N+](=O)[O-])c1 | inactive: 1.54%
